Source: patent US11926614B2, “1,2,4-triazole derivatives as tankyrase inhibitors” (priority 2018, dated 2024)
Like-named read-outs stand apart in the source and are kept apart here.

Protein sequences, listed by entry. Tags and fused reporters are not part of them. Lines headed by an entry give the natural chain unless they say otherwise; changes in a name come on top.
UniProt Q9H2K2: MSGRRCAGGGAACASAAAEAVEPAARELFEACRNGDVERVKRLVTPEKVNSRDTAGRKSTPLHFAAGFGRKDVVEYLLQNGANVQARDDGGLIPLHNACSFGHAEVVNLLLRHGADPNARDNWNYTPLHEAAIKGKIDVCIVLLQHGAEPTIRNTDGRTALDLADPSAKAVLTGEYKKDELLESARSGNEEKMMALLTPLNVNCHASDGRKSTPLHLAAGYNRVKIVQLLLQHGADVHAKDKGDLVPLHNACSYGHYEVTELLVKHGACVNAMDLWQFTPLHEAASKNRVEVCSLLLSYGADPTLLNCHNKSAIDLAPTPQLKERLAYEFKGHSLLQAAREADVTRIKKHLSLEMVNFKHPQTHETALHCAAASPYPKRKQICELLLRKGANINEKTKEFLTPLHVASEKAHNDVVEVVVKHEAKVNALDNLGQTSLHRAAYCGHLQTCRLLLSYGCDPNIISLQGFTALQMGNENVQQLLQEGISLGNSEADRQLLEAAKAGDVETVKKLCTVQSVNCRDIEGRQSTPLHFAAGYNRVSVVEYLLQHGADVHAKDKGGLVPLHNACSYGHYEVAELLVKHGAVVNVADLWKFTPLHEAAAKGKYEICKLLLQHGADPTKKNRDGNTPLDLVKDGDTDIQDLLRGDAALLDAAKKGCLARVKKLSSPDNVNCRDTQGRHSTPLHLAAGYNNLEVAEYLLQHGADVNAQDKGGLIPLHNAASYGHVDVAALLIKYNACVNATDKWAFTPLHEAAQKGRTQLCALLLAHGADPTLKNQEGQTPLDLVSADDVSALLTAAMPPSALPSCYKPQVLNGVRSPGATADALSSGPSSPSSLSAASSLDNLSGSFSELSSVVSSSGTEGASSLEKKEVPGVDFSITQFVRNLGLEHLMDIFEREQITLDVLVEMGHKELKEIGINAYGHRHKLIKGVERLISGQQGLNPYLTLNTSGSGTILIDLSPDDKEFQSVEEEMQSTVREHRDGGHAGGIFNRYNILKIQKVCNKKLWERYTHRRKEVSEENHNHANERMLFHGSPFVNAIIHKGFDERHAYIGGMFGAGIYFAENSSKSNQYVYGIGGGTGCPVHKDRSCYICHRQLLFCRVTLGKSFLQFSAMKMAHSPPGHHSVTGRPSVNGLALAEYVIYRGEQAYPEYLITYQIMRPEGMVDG

Target: TNKS2 (Homo sapiens (Human), UniProt Q9H2K2)
Test: Biochemical IC50 TNKS2
Excerpt: XLfit (idbs) was used to determine the IC50-values in inhibition experiments. The following formula was chosen to fit the data points (Langmuir Binding Isotherm): fit=((A+(B*x))+4(C−B)*(1−exp((−1*D)*x)))/D)), res=(y−fit)

[1] = read-out: Biochemical IC50 TNKS2

SMILES	IC50 [1] [nM]	IC50 [nM]
CS(=O)(=O)c1ccc(-c2nnc([C@H]3C[C@H](NC(=O)c4cccc5cccnc45)C3)n2-c2ccccc2F)nc1 [Example 48]	1.3	
CCOc1ccc(-c2nnc([C@H]3C[C@H](NC(=O)c4ccccn4)C3)n2-c2ccccc2F)nc1 [Example 54, N-((1S,3r)-3-(5-(5-ethoxypyridin-2-yl)-4-(2-fluorophenyl)-4H-1,2,4-triazol-3-yl)cyclobutyl)picolinamide]	7	
[2H]C([2H])([2H])C([2H])([2H])Oc1ccc(-c2nnc([C@H]3C[C@H](NC(=O)c4ccccn4)C3)n2-c2ccccc2F)nc1 [Example 93, N-((1S,3r)-3-(5-(5-(ethoxy-d5)pyridin-2-yl)-4-(2-fluorophenyl)-4H-1,2,4-triazol-3-yl)cyclobutyl)picolinamide]		6.8
